# Reference: paper PMC12274840 (The Journal of Biological Chemistry, 2025)
# Test system: E. coli KA797 cells carrying pUK21 with KPC-2 (Tat)
# Format: cell-based
# Settings: in combination with 100 μg/ml carbenicillin
smiles,measurement,value
CC1(C)[C@H](C(=O)O)N2C(=O)C[C@H]2S1(=O)=O [sulbactam],MIC of inhibitor,16 µg/mL
